Literature values, collected in patent publication US20120028252A1, “HUMAN MENA ISOFORMS SERVE AS MARKERS OF EPITHELIAL TO MESENCHYMAL TRANSITION AND SENSITIVITY TO EGFR INHIBITION IN HUMAN CANCER CELLS” (priority 2008, published 2012).

Test system: hMena and hMena^+11a in breast cancer cell lines
Settings: Herceptin treatment of breast cancer cell lines; cited from earlier work

## Herceptin: marketed drug whose treatment down-regulates hMena+11a expression in breast cancer cell lines
  hMena+11a expression: down-regulates
